Data on one sequence can be found in ChEMBL document CHEMBL1687805, “Colistin resistance in Acinetobacter baumannii is mediated by complete loss of lipopolysaccharide production” (2010).

This assay deals with Acinetobacter baumannii. The experiment in a line: Antibacterial activity against Acinetobacter baumannii ATCC 19606 by broth microdilution method. The assay is classed as functional. Summed up:
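Broth microdilution MIC in cation-adjusted Mueller-Hinton broth following the CLSI protocol, read in μg/ml. Strains were kept on Mueller-Hinton agar and cultured at 37°C. 19606R was selected directly on 10 μg/ml colistin and maintained with it. The pWH1266 or pAL840 transformants of 19606R were introduced by electroporation and selected on 100 μg/ml ampicillin.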
(Dilution methods test growth across graded concentrations, often in twofold steps.)

Take COLISTIN SULFATE: it took 1 µg/mL to inhibit growth (MIC).

Usually MIC stands for the lowest concentration found to suppress growth.
